Compound activity: PubChem, National Center for Advancing Translational Sciences (NCATS)
TrxR1 substrate: substrates of rat thioredoxin reductase 1 | O89049 | purified TrxR1 substrate turnover, NADPH consumption readout | Potency, µM (highest dose often 114 µM), for inactives: at the top dose activity change, negative = substrate turnover | 390,000 compounds, 0.01% hits | AID 588456; note: potency is the fitted concentration of half-maximal effect; % is set by controls: 0 for no effect and ±100 for the full control effect; nearly all actives have a fitted effect of over 50% in size
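Rat TrxR1, dispensed at 90 nM, was prereduced with 400 uM NADPH (final) for 5 min at ~22 deg C, then incubated with compound 15 min before 400 uM selenite. A first-read NADPH fluorescence drop versus no-compound background flagged substrates.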
miR-21 reporter: raises the signal of a miR-21 reporter | HeLa miR-21 FLuc reporter, luciferase, 48 h | Potency, µM (doses to about 38.3 µM), for the others: at the highest dose reporter change, positive = more light | 340,000 tested, under 10 active | AID 2288; active = well fitted rising curve with a large enough effect; inconclusive = small, poorly fitted or top-dose-only effect; inactive = no such curve, though single readings can be large or run the other way;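 also: % of control where 0% means no effect; miR-21 action dims this reporter so a rising signal means less miR-21 action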
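Compounds were titrated across several concentrations (up to approximately 40 uM) and incubated 48 hours with HeLa miR-21-FLuc reporter cells (miR-21 target sequence downstream of FLuc, endogenous miR-21). Readout was firefly luciferase luminescence after lytic detection reagent.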
rTrxR1 inhibitor: blocks rat thioredoxin reductase 1; recombinant rTrxR1, NADPH fluorescence consumption, selenite substrate; AID 588453; Potency, µM (highest dose often 114 µM), for the others: at the top dose activity change, negative = inhibition, hits mostly inhibitors; 390,000 compounds, 1% hits; note: potency is the fitted concentration of half-maximal effect; % is set by controls: 0 for no effect and ±100 for the full control effect; nearly all actives have a fitted effect of over 65% in size
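Rat TrxR1 (90 nM in the dispensed reagent) was pre-reduced with 400 uM NADPH for 5 min at room temperature, then incubated with compound for 15 min. After 400 uM selenite was added, NADPH fluorescence (Ex 340/Em 450 nm) was followed for 8 min.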
ClpP mod: qHTS Assay for Activators of ClpP; purified B. subtilis ClpP, FRET peptide cleavage, 20 min; Potency, µM (titrated, usually from 57.5 µM), inactives show at the top dose activity change, negative = active; 340,000 compounds, 1.9% hits; active = well fitted falling curve with a large enough effect; inconclusive = small, poorly fitted or top-dose-only effect; inactive = no such curve, though single readings can be large or run the other way; note: potency is the fitted concentration of half-maximal effect; the source files actives as falling curves though it sought activators and does not explain the sign; nearly all actives have a fitted effect of over 65% in size
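Purified B. subtilis ClpP, 10 microg/mL final in Tris/HCl pH8 with KCl, BSA, glycerol and Tween-20, cleaved an Abz/nitrotyrosine-quenched decapeptide. Fluorescence (ex 320, em 430) was read at 0 and 20 min at room temperature. Delta was normalized to 5.8 microM ADEP and DMSO/no-enzyme controls.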
Anesthetic bind: binds horse apoferritin like a general anesthetic. P02791. apoferritin/1-aminoanthracene competitive binding, fluorescence. Potency, µM (top dose mostly 77.5 µM), without a hit: at the top dose activity change, negative = displacement, usual class: inhibitors. 350,000 compounds, 0.074% hits. AID 485281; note: potency is the fitted concentration of half-maximal effect; % is set by controls: 0 for no effect and ±100 for the full control effect; nearly all actives have a fitted effect of over 20% in size
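In PBS, apoferritin at 10 uM is loaded with 1-AMA from a 50% saturated solution. After 10 min of compound exposure at ambient temperature, reduced 535 nm fluorescence indicates probe displacement.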
* = called active by the depositor; ? = inconclusive; · = no result given; ! = a repeat was not active; [ ] = remark or other dose. A selection: hits, their analogues and other compounds. The true share with any hit is near 2.5%. Unless noted, calls come from the whole dose curve; as a rule, active = well fitted curve in the direction sought with a large enough effect; inconclusive = small, poorly fitted or top-dose-only effect, or another doubt; inactive = no such curve, though single readings can be large; an effect the other way counts as inactive or inconclusive.

Start of the data: the first 2 records, ahead of the listing:
SMILES	TrxR1 substrate	miR-21 reporter	rTrxR1 inhibitor	ClpP mod	Anesthetic bind
Clc1cccc(-n2ncc3c(Nc4ccc5c(c4)OCCO5)ncnc32)c1	6%[57.1 µM]	-20%	15%[57.1 µM]	-3%	-2%
CCCCn1c(=O)n(C)c(=O)c2c3c(sc21)COC(C)(C)C3	0%[57.1 µM]	0%	9%[57.1 µM]	28µM*	1%

The whole of this part, repeating the preview:
SMILES	TrxR1 substrate	miR-21 reporter	rTrxR1 inhibitor	ClpP mod	Anesthetic bind
Clc1cccc(-n2ncc3c(Nc4ccc5c(c4)OCCO5)ncnc32)c1	6%[57.1 µM]	-20%	15%[57.1 µM]	-3%	-2%
CCCCn1c(=O)n(C)c(=O)c2c3c(sc21)COC(C)(C)C3	0%[57.1 µM]	0%	9%[57.1 µM]	28µM*	1%
CCN1CCc2nc(SCC(=O)Nc3ccc(OC)cc3)c(C#N)cc2C1	-1%	-21%	18µM*	-12%	-12%
COc1ccccc1NC(=O)Cn1c(=O)n(CCc2ccccc2)c(=O)c2c3c(sc21)CN(C(C)=O)CC3	0%	16%	20%	-3%	-15%
Cc1cc(C)cc(NC(=O)Cn2c(-c3ccccc3Cl)nc3ccccc32)c1	-11%	-15%	-10%	28µM*	-10%
CC1(C)COC(c2cc([N+](=O)[O-])ccc2Cl)=N1	9%[57.1 µM]	-1%	8%[57.1 µM]	-1%	?
CC1(C)COC(c2ccc(F)c([N+](=O)[O-])c2)=N1	-9%	3%	18µM*	-5%	-6%
CCc1ccccc1NC(=O)CSc1nc2ncccc2o1	-2%[57.1 µM]	0%	20%[57.1 µM]	3%	-6%
COc1ccc(OC)c(C(=O)CSc2nc3ncccc3[nH]2)c1	19%	-10%	25%[57.1 µM]	32µM*	-12%
CC1CCN(C(=O)CSc2nc3ncccc3[nH]2)CC1	-7%	-32%	8%	-5%	-11%
CCC1CCCCN1C(=O)CSc1nc2ncccc2[nH]1 (configuration not stated)	-2%	0%	50µM*	-7%	-9%
O=C(COc1ccc(S(=O)(=O)N2CCCCC2)cc1)N1CCCCCC1	7%[57.1 µM]	1%	13%[57.1 µM]	32µM*	-16%
CC1CCN(C(=O)COc2ccc(S(=O)(=O)N3CCCC3)cc2)CC1	4%	-8%	10%	·	1%
Cc1ccccc1NS(=O)(=O)c1ccc(OCC(=O)N2CCCC2)cc1	-5%[57.1 µM]	-1%	10%[57.1 µM]	28µM*	-6%
Cc1ccc(CCNC(=O)c2sc3ncccc3c2-n2c(C)ccc2C)cc1	-2%[57.1 µM]	6%	23%[57.1 µM]	-27%	-4%
COc1ccc2c(c1)n([O-])c1c([n+]2=O)CCC1	37%	1%	0%	4%	-8%
CCOc1ccc2c(c1)n([O-])c1c([n+]2=O)CCCC1	32%	-9%	50µM*	?	8%
Cc1ccsc1CNCC(O)c1ccccc1 (configuration not stated)	3%	-22%	28%	·	-5%
Cc1ccsc1CNC1C2CC3CC(C2)CC1C3 (configuration not stated)	8%[57.1 µM]	-1%	23%	22µM*	?
COc1ccc(Cn2ccnc2SCC(=O)Nc2cc(C(F)(F)F)ccc2Cl)cc1	1%[57.1 µM]	-4%	24%[57.1 µM]	1%	?
CC1Cc2ccccc2N1C(=O)CSc1ccccc1 (configuration not stated)	1%	-31%	17%	1%	6.3µM*
CC1Cc2ccccc2N1C(=O)CSC1=NCCS1 (configuration not stated)	-5%	-16%	7%	-3%	?
NCCCN(Cc1ccccc1)c1ccc(Br)cn1	10%	·	5%	0%	·
O=C(NC(=S)Nc1ccc(S(=O)(=O)Nc2nccs2)cc1)c1ccccc1	-14%	-15%	40µM*	-1%	0%
CCc1nnc(NS(=O)(=O)c2ccc(NC(=S)NC(=O)c3ccccc3)cc2)s1	-16%	-14%	28µM*	-9%	1%

Grouped by structure, the compounds so far with an NH in an aromatic ring (three)
SMILES	TrxR1 substrate	miR-21 reporter	rTrxR1 inhibitor	ClpP mod	Anesthetic bind
COc1ccc(OC)c(C(=O)CSc2nc3ncccc3[nH]2)c1	19%	-10%	25%[57.1 µM]	32µM*	-12%
CC1CCN(C(=O)CSc2nc3ncccc3[nH]2)CC1	-7%	-32%	8%	-5%	-11%
CCC1CCCCN1C(=O)CSc1nc2ncccc2[nH]1 (configuration not stated)	-2%	0%	50µM*	-7%	-9%

Remaining list, next part
SMILES	TrxR1 substrate	miR-21 reporter	rTrxR1 inhibitor	ClpP mod	Anesthetic bind
CCc1nnc(NS(=O)(=O)c2ccc(NC(=S)NC(=O)c3ccc(Br)cc3)cc2)s1	-19%	-17%	50µM*	-1%	-10%
CCc1nnc(NS(=O)(=O)c2ccc(NC(=O)c3ccccc3)cc2)s1	2%	-8%	28%	0%	-3%
O=C(NC(=S)Nc1ccc(S(=O)(=O)Nc2nccs2)cc1)c1cccnc1	10%[57.1 µM]	-3%	-48%	·	-7%
CCc1nnc(NC(=O)c2ccc(NS(=O)(=O)c3ccccc3)cc2)s1	3%	0%	13%	28µM*!	-4%
COc1cc2c(NC3CCN(C)CC3)nc(N3CCCN(C)CC3)nc2cc1OCCCCCN(C)C	81%	·	?	4%	·
CCOC(=O)c1c(NC(=O)/C=C/c2ccc(OCC)cc2)sc(C(C)=O)c1C	2%	-7%	4%	-6%	-3%
Cc1cc(C)c(NC(=O)Cn2c(=O)n(CC(=O)NCc3ccccc3Cl)c(=O)c3sccc32)c(C)c1	5%	3%	14%	1%	0%
O=C1CC(N2CCC(c3nc4ccccc4o3)CC2)C(=O)N1c1ccc(F)cc1 (configuration not stated)	1%	2%	29%	2%	-9%
O=C1CC(N2CCC(c3nc4ccccc4o3)CC2)C(=O)N1c1ccc(Cl)c(C(F)(F)F)c1 (configuration not stated)	1%	-5%	18µM*	1%	?
Oc1cccc2c(CC(O)c3c[nH]c4ccccc34)ccnc12 (configuration not stated)	-8%	·	-18%	-3%	·
CC1CCCCN1S(=O)(=O)c1ccc(C(=O)Nc2ccccc2-c2nc3ccccc3[nH]2)cc1 (configuration not stated)	20%	0%	7%	13µM*	-5%
O=C(Nc1ccccc1-c1nc2ccccc2[nH]1)c1ccc(S(=O)(=O)N2CCCCC2)cc1	12%	-4%	-3%	?	-10%
COc1ccc(-n2cc(-c3ccccc3)[nH]c2=S)cc1	0%	-28%	-20%[11.4 µM]	14µM*	-7%
CC(C)NC(=O)c1ccc2c(c1)nc1n2CCCCC1	7%[57.1 µM]	-41%	25%[57.1 µM]	-1%	230%
CS(=O)(=O)N(Cc1ccc(C(=O)NN=C2CCCCCC2)cc1)c1ccccc1	-4%	8%	0%	32µM*	-9%
COc1cc2c3cc1OCc1c(O)c(OC)cc4c1C(Cc1ccc(cc1)Oc1cc(ccc1O)CC3N(C)CC2)N(C)CC4 (configuration not stated)	-3%	·	10%	·	-1%
CN1CCc2cccc3c2[C@H]1Cc1ccc(O)c(O)c1-3	10%	?	22µM*	?	-1%
CCN1CCN(C(c2cccc(F)c2)c2c(O)cc(C)n(CCOC)c2=O)CC1 (configuration not stated)	-3%[57.1 µM]	-6%	11µM*	1%	53%
CCN1CCN(C(c2ccc(OC)cc2)c2c(O)cc(C)n(CCOC)c2=O)CC1 (configuration not stated)	-1%[57.1 µM]	1%	14µM*	-2%	-4%
Oc1c(C(c2ccccc2)N2CCOCC2)sc2nc(-c3ccco3)nn12 (configuration not stated)	-3%[57.1 µM]	-5%	6%[57.1 µM]	0%	-3%
